Test system: HCC-1954 breast cells
Experiment: Breast tumor combination studies, HCC-1954 xenograft
Assay type: in vivo, mouse
Settings: 40 mpk Herceptin + 40 mpk Rat IgG, TIW, vs Human IgG + Rat IgG control, P<0.0001
Description: Inject Nu/nu mice (female, 7-8 weeks of age) subcutaneously with 1×10^7 HCC-1954 breast cells/mouse and allow tumors to reach 300 mm^3 before treatment. Randomize mice into groups of 12 and treat as follows:
Measure tumor volumes and calculate the T/C % for each treatment group as the ratio of the relative tumor volumes versus the control group. Analyze tumor volumes using RM ANOVA.

For “Herceptin ®: anti-neoplastic agent; tumor-targeting agent given in combination”, the “% T/C” value was 46%.

Source: US8263079B2, “Antibodies against CSF-1R” (ImClone, LLC, priority 2010, dated 2012)
